Test results from ChEMBL document CHEMBL1240457, “Synthesis and biological evaluation of cyclic nitrogen mustards based on carnitine framework” (2010).

Columns and labels:
[1] = tested on: A-375; assay: Cytotoxicity against human A375 cells after 24 hrs by MTT assay
[2] = tested on: NCI-H460; assay: Cytotoxicity against human H460 cells after 24 hrs by MTT assay

Structure (SMILES): O=C(O)CCCc1ccc(N(CCCl)CCCl)cc1
- CC50 [1]: 127 µM
- CC50 [2]: 104 µM
